Literature values in US7179597B2, “Genetic diagnosis for QT prolongation related adverse drug reactions” (Georgetown University, priority 2000, dated 2007).

Conditions: Table 2; drug labeling; cited from earlier work

Octreotide
QT: Yes
